Experimental data published in ChEMBL document CHEMBL3414544, “PAINS in the assay: chemical mechanisms of assay interference and promiscuous enzymatic inhibition observed during a sulfhydryl-scavenging HTS” (J Med Chem, 2015).

Molecular target: T1, Histone acetyltransferase RTT109 (Saccharomyces cerevisiae (strain ATCC 204508 / S288c) (Baker's yeast), UniProt Q07794)
T1 sequence (Q07794 whole entry): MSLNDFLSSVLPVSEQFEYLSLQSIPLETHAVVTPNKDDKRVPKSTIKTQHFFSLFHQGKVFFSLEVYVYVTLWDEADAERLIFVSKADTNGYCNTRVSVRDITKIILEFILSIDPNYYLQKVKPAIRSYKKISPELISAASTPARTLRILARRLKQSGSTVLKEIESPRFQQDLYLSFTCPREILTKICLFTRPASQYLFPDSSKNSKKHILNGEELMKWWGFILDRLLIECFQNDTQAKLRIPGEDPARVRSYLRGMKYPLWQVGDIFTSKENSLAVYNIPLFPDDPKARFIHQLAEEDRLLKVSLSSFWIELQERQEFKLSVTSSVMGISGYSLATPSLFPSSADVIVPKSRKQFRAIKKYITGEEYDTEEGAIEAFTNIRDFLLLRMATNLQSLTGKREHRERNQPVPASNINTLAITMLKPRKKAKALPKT
Assay: Inhibition of Vps75-stimulated recombinant Saccharomyces cerevisiae histone acetyltransferase Rtt109 using Asf1-dH3-H4 as substrate assessed as coenzyme A production after 45 mins by CPM based HTS assay
How it was run: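 Recombinant Rtt109–Vps75 at 50 nM, with Asf1–dH3–H4 as substrate and acetyl-CoA as acetyl donor. Buffer contained freshly prepared 0.01% Triton X-100. The CoA product was detected by fluorescence of its CPM adduct. Plates had Z′ ≥0.5. IC50 came from a four-parameter variable-slope fit.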

`O=C1C=CC(=O)N1c1ccc(Cl)cc1` showed an IC50 of 6.3 µM.
